Results taken from paper PMC11184559, “Identification and Validation of Compounds Targeting Leishmania major Leucyl-Aminopeptidase M17” (ACS Infectious Diseases, 2024).

Chains of the proteins cited; added tags and fusions are not shown. Lines headed by an entry give the natural chain unless they say otherwise; changes in a name come on top.
UniProt P28838: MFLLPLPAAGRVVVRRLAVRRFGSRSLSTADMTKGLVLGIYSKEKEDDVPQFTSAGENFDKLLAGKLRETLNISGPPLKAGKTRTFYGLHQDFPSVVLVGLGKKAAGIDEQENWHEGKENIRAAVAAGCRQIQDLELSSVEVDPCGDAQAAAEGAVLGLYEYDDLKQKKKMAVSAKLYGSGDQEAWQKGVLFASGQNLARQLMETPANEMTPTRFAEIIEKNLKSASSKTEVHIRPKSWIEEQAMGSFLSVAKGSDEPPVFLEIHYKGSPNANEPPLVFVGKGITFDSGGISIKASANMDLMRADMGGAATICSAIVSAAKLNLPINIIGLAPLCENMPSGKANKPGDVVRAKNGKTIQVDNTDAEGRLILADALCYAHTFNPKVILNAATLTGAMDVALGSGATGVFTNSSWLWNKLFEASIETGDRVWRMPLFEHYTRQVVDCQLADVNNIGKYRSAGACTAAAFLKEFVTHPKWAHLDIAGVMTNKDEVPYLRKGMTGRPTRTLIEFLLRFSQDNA

What was measured:
rHsLAP = target: T1, rHsLAP (Homo sapiens, UniProt P28838); test: RapidFire-MS selectivity study against human LAP; assay type: biochemical; conditions: IC50(HsLAP)/IC50(rLmLAP)
T1 construct: purchased Assay Genie, Ireland
Procedure: The reaction mixture included 600 μM (1× appKM) LSTVIVR substrate peptide, 1 mM ZnCl2, and the reaction time was 180 min. The inhibitors were tested at concentrations ranging from 0.78 to 100 μM to determine inhibitory activity.

[1] = test system: L. donovani intracellular amastigotes

## COc1ccc(Cc2c(N)nc(-c3ccccn3)nc2N)cc1 [DDD00057570]
rHsLAP
  Selectivity index: >30
[1]; CC50 RAW 264.7 / EC50 L. donovani intracellular amastigotes
  Selectivity index regarding RAW 264.7 cells: > 13
[1]; CC50 THP-1 / EC50 L. donovani intracellular amastigotes
  Selectivity index regarding THP-1 cells: > 13

## O=C(c1cccs1)N(CCCn1ccnc1)c1nc2ccccc2s1 [DDD00097924]
rHsLAP
  Selectivity index: 3
